The record followed here is PMC8796707 (ACS chemical biology, 2020).

One data set has as its system dL5**. The note with it: relative to MG-2p/dL5; 2, 1, 0.75, 0.5 μM dye with 10× FAP.
The test system of a further data set is dK (dL5(E52K)). Description: Fluorescence quantum yield of dye/FAP complex. The note with it: relative to MG-2p/dL5; 2, 1, 0.75, 0.5 μM dye with 10× FAP. The data set is classed as biochemical.
Data set [1] has as its system HEK293 cells expressing dL5**-TM. The note with it: flow cytometry, 100 nM dye, normalized to MG-nBu.
In data set [2] the test system is HEK293 cells expressing NLS-dL5**. Description: Cell permeability testing: labeling of nuclear localized FAP. The data set is classed as cell-based.

On to MG-PEG3500-HexCl [DAPA], for which, in the data set with dL5**, the “quantum yield, Φf, dL5**” value is 0.11. In addition, the “quantum yield, Φf, dK” value in the data set on dK (dL5(E52K)) turned out to be 0.05. The “dL5**-TM labeling fluorescence relative to MG-nBu” value in data set [1] turned out to be 40%. The “labeling of nuclear / intracellular FAP (microscopy)” value in data set [2] (500 nM dye, 15 min, NLS-dL5** HEK293 cells) was “cannot label intracellular FAP”. The cell permeant result in data set [2] (HEK293 cells) was “effectively cell impermeant and no”.
